The entries are a selection whose mix differs from that of the whole data set. Calls of active or inactive are those of the source.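 Rule for the calls: active = inhibition at 20 µM, scaled to each plate's controls, above about 33% (limit read from the data); inactive = the rest.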

The chains behind the UniProt entries cited, without tags or fusion partners.
UniProt O00487, whole entry: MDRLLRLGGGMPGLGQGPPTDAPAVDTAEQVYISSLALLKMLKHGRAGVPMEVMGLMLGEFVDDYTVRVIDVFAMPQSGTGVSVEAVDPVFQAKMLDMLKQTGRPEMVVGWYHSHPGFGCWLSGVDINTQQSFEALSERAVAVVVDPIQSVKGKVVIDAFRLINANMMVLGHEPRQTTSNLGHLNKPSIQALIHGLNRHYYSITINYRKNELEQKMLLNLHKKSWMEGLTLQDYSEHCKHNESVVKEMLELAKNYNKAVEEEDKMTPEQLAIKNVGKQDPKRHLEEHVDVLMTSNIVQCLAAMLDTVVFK

The target of the assay is 26S proteasome non-ATPase regulatory subunit 14 (Homo sapiens) (UniProt O00487). Briefly: Rpn11 (PSMD14) deubiquitinase inhibitors, primary screen, biochemical, fluorescence polarization, uHTS (AID 588493). The conditions noted are these: human 26S proteasome, Ub4-pepOG fluorescence polarization; at 20 µM; hits give high values; 20S core pre-blocked with epoxomicin.
On to `COc1ccc(NP(C)(=O)Oc2ccccc2OC)cc1` (stereo unspecified), for which the inhibition was inactive: -2.7%.

Values taken from PubChem BioAssay AID588493 (Sanford-Burnham Center for Chemical Genomics, 2011).
